This is one part of the list. Some results for these compounds are left out of this collection, so the calls shown say nothing about other tests. Calls of active or inactive are those of the source.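 The calls were made as follows: active = activation factor at least 2 at 20 µM; inactive = the rest.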

The chains behind the UniProt entries cited, without tags or fusion partners.
UniProt P05186, whole entry: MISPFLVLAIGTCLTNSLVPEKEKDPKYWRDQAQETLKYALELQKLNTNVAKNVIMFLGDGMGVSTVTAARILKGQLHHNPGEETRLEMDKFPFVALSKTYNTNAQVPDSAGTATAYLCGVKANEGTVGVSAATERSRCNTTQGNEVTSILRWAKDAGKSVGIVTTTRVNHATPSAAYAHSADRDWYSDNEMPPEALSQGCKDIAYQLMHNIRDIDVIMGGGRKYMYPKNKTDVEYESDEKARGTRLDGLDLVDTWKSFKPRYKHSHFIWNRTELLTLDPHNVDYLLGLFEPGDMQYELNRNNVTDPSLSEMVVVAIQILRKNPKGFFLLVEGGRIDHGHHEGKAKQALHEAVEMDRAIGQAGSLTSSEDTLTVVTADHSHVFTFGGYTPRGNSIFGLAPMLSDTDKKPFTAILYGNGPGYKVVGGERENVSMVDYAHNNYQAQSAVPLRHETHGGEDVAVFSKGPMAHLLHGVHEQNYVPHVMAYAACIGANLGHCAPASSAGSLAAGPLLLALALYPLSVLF

The target of the assay is Alkaline phosphatase, tissue-nonspecific isozyme (Homo sapiens) (UniProt P05186). The experiment in a line: activation of human TNAP, high DEA acceptor – biochemical, luminescence, uHTS, primary screen (AID 1136). The conditions noted are these: purified TNAP, CDP-star luminescence, 1 M DEA, 30 min, at 20 µM; stronger effect = higher value, 0 = EDTA background, 1 = DMSO-only activity.
In the case of `O=C(NCC1(N2CCCCC2)CCCCC1)c1cc([N+](=O)[O-])ccc1Cl`, the activation factor entry is “inactive”.
The entry for `CC(C)N1C(=O)CC2(CCN(CCOC(=O)C(O)(c3ccccc3)c3ccccc3)CC2)C1=O` is “inactive”.
In the case of `Cc1ccccc1C(=O)NCC1(N2CCCCC2)CCCCC1`, the activation factor is inactive: 1.1.
Under `CN(C)C1CCCC1OC(=O)C(O)(c1ccccc1)c1ccccc1` (centres undefined) stands inactive: 1.1; under `C=CCN1CCN(CCOC(=O)C(O)(c2ccccc2)c2ccccc2)CC1`, inactive: 1.1; under `CCN1CCCC(OC(=O)C2(O)c3ccccc3C=Cc3ccccc32)C1` (centres undefined), inactive: 1.1.
For `COc1cccc(C(=O)NCC2(N3CCCCC3)CCCCC2)c1`, the activation factor entry was “inactive”.
Under `O=C(OC1CN2CCC1CC2)C(CO)(c1ccccc1)c1ccccc1` (centres undefined) stands “inactive”; under `CN(C)c1cccc(C(=O)NCC2(N(C)C)CCCCC2)c1`, inactive: 1.1.
